{"source": "patent US20100190739A1", "about": "“Rapidly Dissolving Vitamin Formulation and Methods of Using the Same” (FLEMING AND COMPANY, PHARMACEUTICALS, priority 2008, published 2010)", "origin": "cited, not measured here", "key": {"[1]": {"conditions": "long term intake"}, "[2]": {"conditions": "Institute of Medicine"}}}
{"substance": "Vitamin E", "values": [{"measurement": "Intake resulting in impaired thyroid function", "setting": "[1]", "result": 600, "unit": "IU/day"}, {"measurement": "Tolerable upper limit", "setting": "[2]", "result": 1500, "unit": "IU/day"}]}
